Earlier results in PMC3280956, “DOGS: Reaction-Driven de novo Design of Bioactive Compounds” (PLoS Computational Biology, 2012).

Target: Thrombin
Conditions: cited from earlier work

CC1CCN(C(=O)C(Cc2cccc(C(=N)N)c2)NS(=O)(=O)c2ccc3ccccc3c2)CC1 (stereo not shown) [NAPAMP]
pKi: 8.21

pKi: −log10 of the molar value.
